Earlier results as cited in paper PMC4500090 (Biochemical and biophysical research communications, 2015).

Test system: humans with advanced solid tumors and non-Hodgkin's lymphoma
Settings: cited from earlier work

## O=C(Nc1c[nH]nc1-c1nc2cc(CN3CCOCC3)ccc2[nH]1)NC1CC1 [AT9283]
  Tolerability in phase I clinical trials: well tolerated
